Data reported in US10995088B2, “Methylamine derivatives as lysysl oxidase inhibitors for the treatment of cancer” (The Institute of Cancer Research: Royal Cancer Hospital, priority 2016, dated 2021).

Sequences of proteins named here, by UniProt entry; tags and fusion partners are left off. Residues count along the entry.
UniProt Q9TRC7, 25-755 limits assumed: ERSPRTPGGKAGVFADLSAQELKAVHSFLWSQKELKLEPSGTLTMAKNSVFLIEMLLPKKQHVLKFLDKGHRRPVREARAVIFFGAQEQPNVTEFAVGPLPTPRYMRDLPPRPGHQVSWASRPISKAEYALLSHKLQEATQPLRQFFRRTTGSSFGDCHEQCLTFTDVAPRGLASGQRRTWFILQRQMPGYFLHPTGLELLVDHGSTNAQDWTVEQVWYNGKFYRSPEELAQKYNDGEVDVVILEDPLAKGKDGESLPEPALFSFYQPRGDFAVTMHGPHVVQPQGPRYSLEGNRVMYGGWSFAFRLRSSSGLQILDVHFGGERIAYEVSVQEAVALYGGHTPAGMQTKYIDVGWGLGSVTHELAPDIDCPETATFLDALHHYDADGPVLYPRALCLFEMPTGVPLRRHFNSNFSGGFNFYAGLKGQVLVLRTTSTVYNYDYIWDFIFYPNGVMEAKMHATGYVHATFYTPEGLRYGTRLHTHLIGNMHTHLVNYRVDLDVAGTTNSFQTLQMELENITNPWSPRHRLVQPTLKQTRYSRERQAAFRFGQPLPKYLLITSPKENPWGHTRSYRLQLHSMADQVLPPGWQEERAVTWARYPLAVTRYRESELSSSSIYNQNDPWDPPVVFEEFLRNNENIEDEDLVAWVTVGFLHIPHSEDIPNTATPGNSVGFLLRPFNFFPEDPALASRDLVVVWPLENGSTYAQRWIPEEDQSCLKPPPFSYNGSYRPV

Target: DAO (Sus scrofa, UniProt Q9TRC7)
Conditions: read-out: DAO IC50

| IC50 | Structure (SMILES) |
| --- | --- |
| > 100 µM | CS(=O)(=O)c1cc(-c2ccccc2)cc(S(=O)(=O)c2cnc(CN)s2)c1 |
| > 100 µM | CCc1cc(-c2ccccc2)cc(S(=O)(=O)c2cnc(CN)s2)c1 |
